The numbers were not newly measured in patent US20050089932A1, “Novel proteins with targeted binding” (Avidia Research Institute, priority 2001, published 2005), which cites them from elsewhere.

The conditions of the data set: commercial drugs; cited from earlier work.
For the substance Pegasys: rIFN-a-PEG, the “Human T1/2” value was 78 h. Regarding Rebif: rIFN-b, the “Human T1/2” value is 69 h. Regarding Herceptin: Her2 Antibody, the “Human T1/2” value is 144 h.
